Source: article PMC9837800 (Journal of medicinal chemistry, 2022)

Tested on: OVCAR3 CCNE1 amplified xenograft

Cc1cc2c(C(N)=O)c(N)n(-c3c(C)ccc(O)c3C)c2nc1C [RP-6306, (S)-2-amino-1-(3-hydroxy-2,6-dimethyl-phenyl)-5,6-dimethyl-pyrrolo[2,3-b]pyridine-3-carboxamide]
body weight change (in words) (300 ppm chow, initially): slight body weight loss
tolerability (formulated in chow, 21-day treatment period): well tolerated
